# This is a selection; strong and weak results do not stand in their true shares. Activity calls are given as the source filed them.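 Rule for the calls: active = mean ATP rescue above about 67%, or every replicate alone reaching that limit (limit read from the data, passing the limit was not always enough); inconclusive = no clear call, values can overlap the other calls; inactive = mean under the limit and some replicate under it.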
# Test: suppressors of statin myotoxicity in C2C12 myotubes, primary screen, cell-based, single point, plate reader (AID 602340);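 note: myotubes were challenged with 10 µM simvastatin during compound exposure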
# Details: C2C12 myotubes + simvastatin, ATP luminescence, 48 h; at 7.49 µM; stronger effect = higher value; scaled: DMSO 0, geranylgeraniol control 100
row,Structure (SMILES),rescue of ATP level
1,COc1cc(OC)c(C(=O)NCC2(N(C)C)CCCCC2)cc1OC,inactive: -0.303%
2,CCC(c1nnnn1C(C)(C)C)N1CCC(n2c(=O)[nH]c3ccccc32)CC1 (stereo unspecified),inactive: 5.71%
3,O=C(NCC1(N2CCOCC2)CCCCC1)c1cc(F)c(F)cc1Cl,inactive: -10.3%
4,CCCCn1nnnc1C(c1ccnc2ccccc12)N1CCC(n2c(=O)[nH]c3ccccc32)CC1 (stereo unspecified),inactive: -1.19%
5,CCCCn1nnnc1C(c1ccccc1OC(F)(F)F)N1CCC(n2c(=O)[nH]c3ccccc32)CC1 (stereo unspecified),inactive: 6.56%
6,COc1ccc(CN(CCCl)CCCl)cc1Cl,inactive: 13.5%
7,CN(C)c1cccc(C(=O)NCC2(N3CCCCC3)CCCCC2)c1,inactive: 2.8%
8,COc1ccc(C(c2nnnn2C2CCCC2)N2CCC(n3c(=O)[nH]c4ccccc43)CC2)cc1 (stereo unspecified),inactive: 0.718%
9,Cc1ccc(C(=O)NCC2(N(C)C)CCCCC2)o1,inactive: -4.73%
10,CCCOc1ccc(C(=O)NCC2(N(C)C)CCCCC2)cc1OC,inactive: 1.23%
11,O=C(NCC1(N2CCCCC2)CCCCC1)c1cncc(Br)c1,inactive: 14.2%
12,CCN1CCC(Nc2ccc(Cl)cc2)CC1,inactive: -0.167%
13,N#CC1(Nc2ccccc2)CCN(CCc2ccccc2)CC1,inactive: 2.86%
14,O=c1[nH]c2ccccc2n1C1CCN(C(c2ccccc2OC(F)(F)F)c2nnnn2C2CCCC2)CC1 (stereo unspecified),inactive: 6.79%
15,CSc1ccc(C(=O)NCC2(N3CCOCC3)CCCCC2)cc1,inactive: -2.06%
16,CC(C)(C)n1nnnc1C(c1ccccc1OC(F)(F)F)N1CCC(n2c(=O)[nH]c3ccccc32)CC1 (stereo unspecified),inactive: 8.11%
17,O=C(NCC1(N2CCCCC2)CCCCC1)c1ccc(OC(F)F)cc1,inactive: 4.14%
18,O=C(NCC1(N2CCOCC2)CCCCC1)c1cc(=O)[nH]c2ccccc12,inactive: -15.7%
19,COc1cc(C(=O)NCC2(N3CCCCC3)CCCCC2)ccc1OC(F)F,inactive: -9.62%
20,CCCCn1nnnc1C(c1cccc2ccccc12)N1CCC(n2c(=O)[nH]c3ccccc32)CC1 (stereo unspecified),inactive: -12.2%
21,CC(C)c1ccc(C(=O)NCC2(N3CCOCC3)CCCCC2)cc1,inactive: -16.1%
22,O=C(NCC1(N2CCCCC2)CCCCC1)c1cccc(C(F)(F)F)c1,inactive: 11%
23,O=C(NCC1(N2CCCCC2)CCCCC1)c1ccc(F)cc1,inactive: 23.7%

row,Structure (SMILES),rescue of ATP level
1,CCCCOc1ccc(C(=O)NCC2(N3CCOCC3)CCCCC2)cc1,inactive: -3.22%
2,O=P1(N(CCCl)CCCl)SCCCS1,inactive: -3.1%
3,CCCCn1nnnc1C(c1cc2ccccc2o1)N1CCC(n2c(=O)[nH]c3ccccc32)CC1 (stereo unspecified),inactive: -28.5%
4,CCOC(=O)N1CCC(Nc2ccc(F)cc2)CC1,inactive: -4.27%
5,COc1ccc(NC2CCN(CCc3ccccc3)CC2)c(OC)c1,inactive: -12.2%
6,CC(C)(C)n1nnnc1C(c1ccccc1)N1CCC(n2c(=O)[nH]c3ccccc32)CC1 (stereo unspecified),inactive: 1.35%
7,O=C1CCN(Cc2ccccc2)CC1,inactive: -6.94%
8,COc1cc(C(=O)NCC2(N(C)C)CCCCC2)ccc1OC(F)F,inactive: -5.19%
9,CCOC(=O)N1CCC(Nc2cccc(C)c2)CC1,inactive: 1.08%
10,O=c1[nH]c2ccccc2n1C1CCN(C(c2cccc3ccccc23)c2nnnn2C2CCCC2)CC1 (stereo unspecified),inactive: -14.5%
11,O=c1[nH]c2ccccc2n1C1CCN(C(c2ccccc2)c2nnnn2C2CCCCC2)CC1 (stereo unspecified),inactive: 15.7%
12,CSc1ccccc1C(=O)NCC1(N2CCCCC2)CCCCC1,inactive: -10.8%
13,Cc1cccc(NC2(C#N)CCN(Cc3ccccc3)CC2)c1,inactive: 5.43%
14,COc1ccc(C(=O)NCC2(N3CCCCC3)CCCCC2)cc1,inactive: 2.8%
15,CCC(c1nnnn1C1CCCC1)N1CCC(n2c(=O)[nH]c3ccccc32)CC1 (stereo unspecified),inactive: 1.56%
16,CC(C)(C)OC(=O)N1CCC(N(C(=O)c2ccccc2)c2ccc(F)cc2)CC1,inactive: -1.95%
17,O=C(NCC1(N2CCCCC2)CCCCC1)c1ccc(=O)[nH]c1,inactive: 3.85%
18,CCCCn1nnnc1C(c1cccs1)N1CCC(n2c(=O)[nH]c3ccccc32)CC1 (stereo unspecified),inactive: 14.5%
19,O=C(NCC1(N2CCCCC2)CCCCC1)c1cccs1,inactive: -2.75%
20,CCCCn1nnnc1C(CC)N1CCC(n2c(=O)[nH]c3ccccc32)CC1 (stereo unspecified),inactive: -2.72%
21,O=c1[nH]c2ccccc2n1C1CCN(C(c2cc3ccccc3o2)c2nnnn2C2CCCCC2)CC1 (stereo unspecified),inactive: -16.1%
22,O=C(OC1CN2CCC1CC2)C1c2ccccc2Oc2ccccc21 (stereo unspecified),inactive: -10.4%
23,O=C(NCC1(N2CCCCC2)CCCCC1)c1ccc(Cl)s1,inactive: 0.554%

row,Structure (SMILES),rescue of ATP level
1,COc1ccc(Cl)cc1C(=O)NCC1(N2CCOCC2)CCCCC1,inactive: -6.79%
2,CCOC(=O)N1CCC(Nc2ccc(OC)cc2)CC1,inactive: 13.6%
3,CCCCn1nnnc1C(c1ccc(OC)cc1)N1CCC(n2c(=O)[nH]c3ccccc32)CC1 (stereo unspecified),inactive: 9.59%
4,O=c1[nH]c2ccccc2n1C1CCN(C(c2ccccc2OC(F)(F)F)c2nnnn2C2CCCCC2)CC1 (stereo unspecified),inactive: -0.825%
5,O=C(NCC1(N2CCCCC2)CCCCC1)c1ccc(Cl)nc1,inactive: -7.79%
6,Cc1cc(C)cc(N(C(=O)c2ccccc2)C2CCN(C(=O)OC(C)(C)C)CC2)c1,inactive: 36.9%
7,O=C(O)C1(Nc2ccccc2)CCN(Cc2ccccc2)CC1,inactive: -6.36%
8,CCCOc1ccc(C(=O)NCC2(N(C)C)CCCCC2)cc1,inactive: -3.62%
9,O=c1[nH]c2ccccc2n1C1CCN(C(c2cc3ccccc3o2)c2nnnn2C2CCCC2)CC1 (stereo unspecified),inactive: -43.9%
10,CCOc1ncccc1C(=O)NCC1(N2CCOCC2)CCCCC1,inactive: 21.2%
11,CN1CCC(Nc2ccc(F)c(Cl)c2)CC1,inactive: -3.84%
12,CN1CCC(Nc2ccc(Cl)cc2)CC1,inactive: -4.84%
13,COc1cccc(C(=O)N(c2cc(C)cc(C)c2)C2CCN(C(=O)OC(C)(C)C)CC2)c1,inactive: 25.7%
14,COc1cccc(C(c2nnnn2C2CCCC2)N2CCC(n3c(=O)[nH]c4ccccc43)CC2)c1OC (stereo unspecified),inactive: 10.4%
15,COc1cc(OC)cc(C(=O)NCC2(N3CCOCC3)CCCCC2)c1,inactive: -0.635%
16,CCC(CO)(C(=O)OC1CN2CCC1CC2)c1ccccc1 (stereo unspecified),inactive: -11.4%
17,Cc1ccc(C(=O)NCC2(N3CCCCC3)CCCCC2)o1,inactive: -2.3%
18,Fc1ccccc1NC1CCN(Cc2ccccc2)CC1,inactive: 17.1%
19,Cc1ccc(NC2(C#N)CCN(Cc3ccccc3)CC2)cc1,inactive: -2.03%
20,CC(=O)N(c1ccccc1)C1CCNCC1,inactive: -1.37%
21,COc1cccc(C(c2nnnn2C2CCCCC2)N2CCC(n3c(=O)[nH]c4ccccc43)CC2)c1OC (stereo unspecified),inactive: 5.57%
22,CCC(c1nnnn1C1CCCCC1)N1CCC(n2c(=O)[nH]c3ccccc32)CC1 (stereo unspecified),inactive: -0.549%
23,O=c1[nH]c2ccccc2n1C1CCN(C(c2ccnc3ccccc23)c2nnnn2C2CCCCC2)CC1 (stereo unspecified),inactive: -17.7%

row,Structure (SMILES),rescue of ATP level
1,COc1cc(OC)cc(C(=O)NCC2(N3CCCCC3)CCCCC2)c1,inactive: 14.9%
2,O=C(NCC1(N2CCCCC2)CCCCC1)c1ccco1,inactive: -12.6%
3,Cn1c(=O)[nH]cc(N(CCCl)CCCl)c1=O,inactive: -0.168%
4,Cc1ccccc1NC1(C#N)CCN(Cc2ccccc2)CC1,inactive: -0.943%
5,CC(C)(C)n1nnnc1C(c1ccnc2ccccc12)N1CCC(n2c(=O)[nH]c3ccccc32)CC1 (stereo unspecified),inactive: -43.7%
6,COc1ccc(C(c2nnnn2C2CCCCC2)N2CCC(n3c(=O)[nH]c4ccccc43)CC2)cc1 (stereo unspecified),inactive: 7.48%
7,N#Cc1ccc(C(=O)NCC2(N3CCCCC3)CCCCC2)cc1,inactive: 2.73%
8,CC(C)(C)OC(=O)N1CCC(N(C(=O)c2ccccc2)c2ccc(Cl)cc2)CC1,inactive: 2.77%
9,CC(C)(C)n1nnnc1C(c1cccc2ccccc12)N1CCC(n2c(=O)[nH]c3ccccc32)CC1 (stereo unspecified),inactive: -22.9%
10,CN(C)C1(CNC(=O)c2cccc(C#N)c2)CCCCC1,inactive: -9.87%
11,CCCN1CCC(Nc2cc(OC)cc(OC)c2)CC1,inactive: -6.21%
12,O=c1[nH]c2ccccc2n1C1CCN(C(c2ccccc2)c2nnnn2C2CCCC2)CC1 (stereo unspecified),inactive: 10.3%
13,O=c1[nH]c2ccccc2n1C1CCN(C(c2cccs2)c2nnnn2C2CCCCC2)CC1 (stereo unspecified),inactive: 13.6%
14,O=c1[nH]c2ccccc2n1C1CCN(C(c2ccnc3ccccc23)c2nnnn2C2CCCC2)CC1 (stereo unspecified),inactive: -26.9%
15,CCCCn1nnnc1C(c1ccccc1)N1CCC(n2c(=O)[nH]c3ccccc32)CC1 (stereo unspecified),inactive: 2.71%
16,COc1cc(C(=O)NCC2(N3CCOCC3)CCCCC2)cc(OC)c1C,inactive: -29.3%
17,O=C(NCC1(N2CCOCC2)CCCCC1)c1cc(Br)ccc1Cl,inactive: -6.67%
18,O=c1[nH]c2ccccc2n1C1CCN(C(c2cccs2)c2nnnn2C2CCCC2)CC1 (stereo unspecified),inactive: -0.134%
19,CCCCn1nnnc1C(c1cccc(OC)c1OC)N1CCC(n2c(=O)[nH]c3ccccc32)CC1 (stereo unspecified),inactive: -1.68%
20,COc1cccc(C(c2nnnn2C(C)(C)C)N2CCC(n3c(=O)[nH]c4ccccc43)CC2)c1OC (stereo unspecified),inactive: -2.46%
21,CCOC(=O)N1CCC(Nc2ccc(C)cc2)CC1,inactive: 12%
22,N/C(=N\O)c1c(N)no[n+]1[O-],inactive: 5.35%

# From PubChem BioAssay AID602340 (Broad Institute, 2012)
